Source: PubChem BioAssay (NCI)
Values joined by “and” are separate entries in the source; they are usually repeats but may differ in a detail not shown here. Equal values may be shown once. The list shows a part of the results, in another mix than the full data. Some tests of the compounds listed are not included; inactive here does not mean inactive elsewhere. Active and inactive are the calls of the source. No stated cut-off is given here; in the data, active means growth inhibition above about 70%; inactive means the rest.

Assays:
[1] = NCI Yeast Anticancer Drug Screen. Data for the rad50 strain (AID 155);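 further: 0% = growth of vehicle-only cultures of the same strain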; settings: S. cerevisiae rad50 strain growth inhibition; at 50.0 µM; stronger effect = higher value
[2] = NCI Yeast Anticancer Drug Screen. Data for the mec2-1 strain (AID 157); settings: S. cerevisiae mec2-1 strain, at 50.0 µM, stronger effect = higher value
[3] = NCI Yeast Anticancer Drug Screen. Data for the sgs1 mgt1 strain (AID 161);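 further: 0% = growth of cultures given vehicle only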; settings: S. cerevisiae sgs1 mgt1 strain, at 50.0 µM, stronger effect = higher value
[4] = NCI Yeast Anticancer Drug Screen. Data for the cln2 rad14 strain (AID 165);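 further: 0% = growth equal to vehicle treated cultures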; settings: S. cerevisiae cln2 rad14 strain, at 50.0 µM, stronger effect = higher value
[5] = NCI Yeast Anticancer Drug Screen. Data for the bub3 strain (AID 167); settings: S. cerevisiae bub3 mutant strain, at 50.0 µM, stronger effect = higher value
[6] = NCI Yeast Anticancer Drug Screen. Data for the mlh1 rad18 strain (AID 175); settings: S. cerevisiae mlh1 rad18 strain growth inhibition; at 50.0 µM; stronger effect = higher value

Measured: growth inhibition

CN1CCC(OC(=O)C2(O)c3ccccc3Oc3ccccc32)CC1
inactive: [1] -28.4% | [2] -18.9% | [3] -6.6% | [4] -11.4% | [5] -11% | [6] -40.2%

CC#CC(O)(C(=O)OC1CCN(C)CC1)C1CCCCC1 (centres undefined)
inactive: [1] 46.5% | [2] 24.8% | [3] 57.4% | [4] 64.2% | [5] 59.9% | [6] 54.7%

CC(C)C(O)(C(=O)OCC1=CN2CCC1CC2)c1ccccc1 (centres undefined)
inactive: [1] -0.2% | [2] 17.1% | [3] 0.5% | [4] -0.55% | [5] -6.45% | [6] -13.5%

CN1CCC(OC(=O)C(O)(c2ccccc2)C2CCCC2)C1 (centres undefined)
inactive: [1] -7.05% | [2] -19.6% | [3] -2.75% | [4] -8.5% | [5] -15.7% | [6] 9.15%

CC1(C)CCCN1CCOC(=O)C(O)(c1ccccc1)C1CCCC1 (centres undefined)
inactive: [1] 17.2% | [2] 9.1% | [3] 9.3% | [4] 7.75% | [5] 6.75% | [6] 11.9%

N#CC(C#N)=Cc1ccc(Br)cc1
inactive: [1] 4.7% and 21.2% | [2] 15.8% and 0.6% | [3] 19.9% and -3.6% | [4] 10.9% and 2.6% | [5] 22.4% and 0.55% | [6] 24.8% and 38.3%

ClCCN(CCCl)C1CCCc2ccccc21 (centres undefined)
inactive: [1] 12.9% | [2] -17.4% | [3] 8.8% | [4] 20.2% | [5] 6.6% | [6] -12.8%

CCCC/C=C\C(O)(C(=O)OC1CN2CCC1CC2)c1ccccc1 (centres undefined)
inactive: [1] 21.4% | [2] 2.45% | [3] -16.6% | [4] 4.9% | [5] 0.05% | [6] 13.8%

CC/C=C\C(O)(C(=O)OC1CCN(C)CC1)C1CCCC1 (centres undefined)
inactive: [1] 53.1% | [2] 31.3% | [3] 53.5% | [4] 37.1% | [5] 38.7% | [6] 46.7%
